# Patent publication US5162315A, “Penetration enhancers” (priority 1989, dated 1992)
# Assay: In vitro permeation of isosorbide dinitrate (ISDN) through human stratum corneum in diffusion cells (Example 8)
# Conditions: 0.7% ISDN cream, enhancer 2% (Control: no enhancer), about 500 mg applied, normal saline pH 7.2-7.4, triplicate
compound,measurement,value
O=[N+]([O-])O[C@H]1CO[C@H]2[C@@H]1OC[C@H]2O[N+](=O)[O-],Average Cumulative Amount of ISDN in Micrograms permeating over 48 hours,535.0 ± 25 Micrograms
